For this test, the system named is KYSE-150 esophageal carcinoma cell line. Description: In vitro cell-based assay: cellular proliferation via BrdU incorporation ELISA. Particulars: KYSE-150 cells, 168 hr compound incubation. Further details: species or system human. For orientation: Incorporation of labelled thymidine or its analogues reports DNA synthesis.

pIC50: −log10 of the molar value.

Turning to “3-{[(6-chloro-1,2,3,4-tetrahydronaphthalen-1-yl)methyl]amino}pyridine-4-carboxylic acid [Example 67]”, the negative logarithm of the IC50 (pIC50) was 5.00 to 6.00.

By pIC50 is commonly meant the negative decadic logarithm of the IC50, by convention in mol/L.

(Values after patent US9725441B2, “Histone demethylase inhibitors” (CELGENE QUANTICEL RESEARCH, INC., priority 2012, dated 2017).)
